Biological target: cAMP and cAMP-inhibited cGMP 3',5'-cyclic phosphodiesterase 10A (Homo sapiens, UniProt Q9Y233)
Test: Inhibition of PDE10A

The chains behind the UniProt entries cited, without tags or fusion partners. Where a name states a change or a piece, a line headed by the entry shows the natural chain unless it says otherwise.
UniProt Q9Y233: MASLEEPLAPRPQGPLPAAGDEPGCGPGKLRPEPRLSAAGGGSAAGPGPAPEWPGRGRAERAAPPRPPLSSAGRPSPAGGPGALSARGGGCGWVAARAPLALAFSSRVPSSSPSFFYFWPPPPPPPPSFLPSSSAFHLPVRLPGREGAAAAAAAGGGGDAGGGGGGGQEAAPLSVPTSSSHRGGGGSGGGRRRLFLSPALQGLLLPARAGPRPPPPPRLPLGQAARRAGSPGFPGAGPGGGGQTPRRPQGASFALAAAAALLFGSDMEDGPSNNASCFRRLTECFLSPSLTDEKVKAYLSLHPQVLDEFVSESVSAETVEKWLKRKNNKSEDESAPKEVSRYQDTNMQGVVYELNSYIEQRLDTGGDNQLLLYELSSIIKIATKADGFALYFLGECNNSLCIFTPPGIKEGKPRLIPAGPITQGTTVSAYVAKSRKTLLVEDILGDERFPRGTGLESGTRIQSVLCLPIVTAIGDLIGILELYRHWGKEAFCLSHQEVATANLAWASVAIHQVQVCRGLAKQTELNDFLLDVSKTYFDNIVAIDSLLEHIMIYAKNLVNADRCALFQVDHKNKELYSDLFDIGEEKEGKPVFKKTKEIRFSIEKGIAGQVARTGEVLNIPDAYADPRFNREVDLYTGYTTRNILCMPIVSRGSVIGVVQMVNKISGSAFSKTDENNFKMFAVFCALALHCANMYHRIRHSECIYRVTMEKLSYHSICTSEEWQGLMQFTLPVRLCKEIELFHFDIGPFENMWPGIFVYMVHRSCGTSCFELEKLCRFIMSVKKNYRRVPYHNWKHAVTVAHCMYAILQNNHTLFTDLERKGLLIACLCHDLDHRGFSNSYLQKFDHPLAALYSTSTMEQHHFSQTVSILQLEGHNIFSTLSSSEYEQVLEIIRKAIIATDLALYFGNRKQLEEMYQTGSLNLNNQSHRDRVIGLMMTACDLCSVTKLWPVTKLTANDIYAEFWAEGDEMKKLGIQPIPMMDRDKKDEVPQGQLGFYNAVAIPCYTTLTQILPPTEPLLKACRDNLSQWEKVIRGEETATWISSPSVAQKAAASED

SMILES | IC50 [nM]
CC(=O)N1CCCC(c2cccnc2Oc2ccc(C(=O)c3nc4ccccc4[nH]3)cc2)C1 (configuration not stated) | 0.05
c1cnc(Oc2ccc(Nc3nc4ccccc4s3)cc2)c(N2CCOCC2)c1 | 0.96
